# Values joined by “and” are separate entries in the source; they are usually repeats but may differ in a detail not shown here. Equal values may be shown once. Read-outs that look alike come from different tables or passages of the source.
# Experiments:
# [1] = in vivo
# [2] = in vivo; remark: listed apart in the source
substance,measurement,setting,value
buprenorphine,"AUC0-∞/D, GM",[1],4.65 ng·h/mL/mg and 4.57 ng·h/mL/mg
same,"Apparent terminal T½, GM",[1],10.71 h and 13.43 h
same,Cmax/D GMR (BUP/NAL + GZR/BUP/NAL alone),[1],0.90
same,"Cmax/D, GM",[1],0.802 ng/mL/mg and 0.722 ng/mL/mg
same,"Tmax, median",[1],1.99 h and 2.01 h
same,"AUC0-∞, GM",[2],38.4 ng·h/mL
same,"Apparent terminal T½, GM",[2],37.39 h and 39.59 h
same,"Cmax, GM",[2],3.79 ng/mL and 3.57 ng/mL
same,"Tmax, median",[2],1.51 h and 1.49 h
same,"AUC0-∞, GM",[2]; po,37.6 ng·h/mL
